# Tests used:
# By UniProt entry, the sequences of proteins in these tests, tags left out. Where a name states a change or a piece, a line headed by the entry shows the natural chain unless it says otherwise.
# UniProt P04818: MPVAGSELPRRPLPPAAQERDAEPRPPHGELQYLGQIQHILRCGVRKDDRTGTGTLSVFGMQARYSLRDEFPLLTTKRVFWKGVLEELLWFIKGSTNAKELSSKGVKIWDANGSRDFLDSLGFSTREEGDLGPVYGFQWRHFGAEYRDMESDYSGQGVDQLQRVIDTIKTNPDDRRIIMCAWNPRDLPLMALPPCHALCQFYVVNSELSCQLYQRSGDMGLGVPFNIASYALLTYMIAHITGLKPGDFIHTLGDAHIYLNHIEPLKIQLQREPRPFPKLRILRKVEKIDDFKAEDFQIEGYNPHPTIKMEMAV
# UniProt C3SWJ7, whole entry: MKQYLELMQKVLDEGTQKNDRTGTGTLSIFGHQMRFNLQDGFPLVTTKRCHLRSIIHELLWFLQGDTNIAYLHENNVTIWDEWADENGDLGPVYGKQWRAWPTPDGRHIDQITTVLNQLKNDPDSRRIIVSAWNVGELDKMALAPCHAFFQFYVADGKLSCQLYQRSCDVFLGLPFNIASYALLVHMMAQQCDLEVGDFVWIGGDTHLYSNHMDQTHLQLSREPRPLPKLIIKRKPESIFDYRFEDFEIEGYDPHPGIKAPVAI
# Thymidylate synthase [1] = target: Thymidylate synthase (Homo sapiens, UniProt P04818)
# Thymidylate synthase [2] = target: Thymidylate synthase (Escherichia coli, UniProt C3SWJ7); assay: Inhibition of Escherichia coli thymidylate synthase
smiles,measurement,setting,value
Nc1nc2[nH]cc(CCc3ccc(C(=O)N[C@@H](CCC(=O)O)C(=O)O)cc3)c2c(=O)[nH]1 [PEMETREXED],IC50,Thymidylate synthase [1],9.5 µM
same,IC50,Thymidylate synthase [2],76 µM

# — ChEMBL document CHEMBL1149301, “Benzoyl ring halogenated classical 2-amino-6-methyl-3,4-dihydro-4-oxo-5-substituted thiobenzoyl-7H-pyrrolo[2,3-d]pyrimidine antifolates as inhibitors of thymidylate synthase and as antitumor agents” (J Med Chem, 2004)
